Data published in ChEMBL document CHEMBL1122206, “Use of adenine nucleotide derivatives to assess the potential of exo-active-site-directed reagents as species- or isozyme-specific enzyme inactivators. 5. Interactions of adenosine 5'-triphosphate derivatives with rat pyruvate kinases, Escherichia coli thymidine kinase, and yeast and rat …” (1982).

Legend:
[1] = target: T1, Hexokinase-1 (Rattus norvegicus) (UniProt P05708); experiment: Time dependent inhibition of Hexokinase type I activity after 6 h, at 22 degrees celsius, at 5 mM compound
T1 sequence (whole entry): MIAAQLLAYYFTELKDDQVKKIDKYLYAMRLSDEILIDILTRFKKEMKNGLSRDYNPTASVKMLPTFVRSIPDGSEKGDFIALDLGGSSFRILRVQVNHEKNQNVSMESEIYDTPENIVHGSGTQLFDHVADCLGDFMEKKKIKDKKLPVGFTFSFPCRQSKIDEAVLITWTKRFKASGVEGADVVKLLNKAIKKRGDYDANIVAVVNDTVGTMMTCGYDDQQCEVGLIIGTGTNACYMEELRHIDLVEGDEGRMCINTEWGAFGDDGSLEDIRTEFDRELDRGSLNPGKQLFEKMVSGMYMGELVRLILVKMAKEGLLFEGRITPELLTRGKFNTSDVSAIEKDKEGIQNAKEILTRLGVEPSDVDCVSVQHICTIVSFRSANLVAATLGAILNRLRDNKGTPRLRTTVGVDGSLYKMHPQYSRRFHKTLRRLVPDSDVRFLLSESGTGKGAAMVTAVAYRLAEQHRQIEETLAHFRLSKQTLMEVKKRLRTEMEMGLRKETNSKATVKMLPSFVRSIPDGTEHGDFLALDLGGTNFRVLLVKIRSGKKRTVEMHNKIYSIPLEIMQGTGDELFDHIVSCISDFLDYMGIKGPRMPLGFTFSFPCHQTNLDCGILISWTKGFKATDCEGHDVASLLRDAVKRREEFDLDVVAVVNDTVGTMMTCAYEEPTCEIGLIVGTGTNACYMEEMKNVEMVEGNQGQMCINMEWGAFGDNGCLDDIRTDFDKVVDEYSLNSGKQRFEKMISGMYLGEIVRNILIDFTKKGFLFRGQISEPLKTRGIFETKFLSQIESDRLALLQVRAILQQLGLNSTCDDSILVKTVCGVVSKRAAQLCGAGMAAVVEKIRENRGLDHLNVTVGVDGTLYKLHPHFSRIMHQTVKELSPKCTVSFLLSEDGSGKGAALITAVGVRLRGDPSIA

[2] = Realtive affinity expressed as KM (ATP or ADP)/ Ki of inhibitor.
[3] = test system: Hexokinase (Saccharomyces cerevisiae); experiment: Compound was tested for time dependent inhibition of hexokinase activity after 6 hr, at 0 degrees celsius, with 10 mM ATP derivative in yeast hexokinase

- inhibition [1]: 23%
- Relative affinity [2]: 0.28
- inhibition [3]: 23%
Structure (SMILES): O=C(CI)NCCCCCCNc1ncnc2c1ncn2[C@@H]1O[C@H](COP(=O)(O)OP(=O)(O)OP(=O)(O)O)[C@@H](O)[C@H]1O
